The values that follow are results of earlier work, collected in patent publication US20090169478A1, “In Vivo Imaging and Therapy with Magnetic Nanoparticle Conjugates” (priority 2005, published 2009).

The series has as its system mice. The note with it: mouse, in vivo, 350 mg/kg; cited from earlier work.

As to iron oxide nanoparticles, the tolerance entry is “well tolerated”.
